The assay has as its target T1, MAO-B (Rattus norvegicus, UniProt P19643).
T1 construct: the whole brain without cerebellum was dissected rapidly and frozen on dry ice; from tissue; host or cells: whole brain without cerebellum of orally dosed male Wistar rats, homogenate
Briefly: Inhibition of Type B monoamine oxidase activity in rat brain synaptosomes. Conditions: substrate [^14 C]-PEA 200 μM; read-out: Inhibitory Concentration - IC50 MAO-B. It counts as biochemical. The procedure: Inhibition of Type A and Type B Monoamine Oxidase Activity in Rat Brain Synaptosomes
To determine the selective inhibition of the two forms of monoamine oxidase (MAO).
Although various methods for measuring MAO activity are available, the described method involves the extraction of the radiolabeled deaminated metabolites of [^3 H]-5HT or [^14 C]-β-phenethylamine. This procedure allows MAO-A and MAO-B activities to be measured either simultaneously or individually (3).
c. Add 12 μl of [^14 C]-PEA to 2 ml of the 5 mM PEA solution. (final amine concentration in the assay is 200 μM: see below.)
5. Equal amounts of MAO-A (5HT) and MAO-B (PEA) substrates are combined for simultaneously testing both MAO types, i.e. mixed stock solution of 2.5 mM 5HT and 2.5 mM PEA, 40 μl of this mixed solution gives a 200 μM final concentration of each amine in the assay. […]
Tubes are preincubated for 15 minutes at 37° C. and the assay is started by adding 40 μl of combined substrate ([^3 H]-5HT and [^14 C]-PEA) at 15 second intervals. […] Tissue blank values are determined by adding the acid before the radioactive substrate. […] 10 ml of Liquiscint is added and the samples are counted using window settings for ^14 C in one channel and ^3 H in the second channel. IC50 values are determined by log-probit analysis.

Protein sequences, listed by entry. Tags and fused reporters are not part of them.
UniProt P19643, whole entry: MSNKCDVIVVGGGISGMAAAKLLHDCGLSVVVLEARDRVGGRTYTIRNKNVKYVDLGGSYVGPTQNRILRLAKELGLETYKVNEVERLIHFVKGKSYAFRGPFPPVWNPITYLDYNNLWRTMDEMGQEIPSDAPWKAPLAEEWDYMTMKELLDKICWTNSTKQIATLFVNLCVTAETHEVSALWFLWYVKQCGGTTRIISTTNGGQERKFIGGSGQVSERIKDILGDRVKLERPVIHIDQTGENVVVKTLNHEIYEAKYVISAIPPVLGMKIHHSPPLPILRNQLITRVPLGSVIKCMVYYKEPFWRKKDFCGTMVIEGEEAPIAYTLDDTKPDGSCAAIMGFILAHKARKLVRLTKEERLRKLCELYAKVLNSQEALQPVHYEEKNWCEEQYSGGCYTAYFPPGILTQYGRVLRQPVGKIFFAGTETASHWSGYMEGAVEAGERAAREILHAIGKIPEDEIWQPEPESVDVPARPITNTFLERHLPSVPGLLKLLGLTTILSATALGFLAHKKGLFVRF

We go through 1 compound from patent publication US5580982A, “Substituted 3-(aminoalkylamino)-1,2-benzisoxazoles and related compounds” (priority 1995, dated 1996).

Consider `COc1cc(Br)c2oc(C3CCNCC3)cc2c1` [Brofaromine, reference compound], for which the IC50 was 23 µM.
